We go through one compound from patent US20230115515A1, “PYRAZOLYLPROPANAMIDE COMPOUNDS AND USES THEREOF FOR TREATMENT OF PROSTATE CANCER” (priority 2020, published 2023).

Chains of the proteins cited; added tags and fusions are not shown. Lines headed by an entry give the natural chain unless they say otherwise; changes in a name come on top.
UniProt P10275: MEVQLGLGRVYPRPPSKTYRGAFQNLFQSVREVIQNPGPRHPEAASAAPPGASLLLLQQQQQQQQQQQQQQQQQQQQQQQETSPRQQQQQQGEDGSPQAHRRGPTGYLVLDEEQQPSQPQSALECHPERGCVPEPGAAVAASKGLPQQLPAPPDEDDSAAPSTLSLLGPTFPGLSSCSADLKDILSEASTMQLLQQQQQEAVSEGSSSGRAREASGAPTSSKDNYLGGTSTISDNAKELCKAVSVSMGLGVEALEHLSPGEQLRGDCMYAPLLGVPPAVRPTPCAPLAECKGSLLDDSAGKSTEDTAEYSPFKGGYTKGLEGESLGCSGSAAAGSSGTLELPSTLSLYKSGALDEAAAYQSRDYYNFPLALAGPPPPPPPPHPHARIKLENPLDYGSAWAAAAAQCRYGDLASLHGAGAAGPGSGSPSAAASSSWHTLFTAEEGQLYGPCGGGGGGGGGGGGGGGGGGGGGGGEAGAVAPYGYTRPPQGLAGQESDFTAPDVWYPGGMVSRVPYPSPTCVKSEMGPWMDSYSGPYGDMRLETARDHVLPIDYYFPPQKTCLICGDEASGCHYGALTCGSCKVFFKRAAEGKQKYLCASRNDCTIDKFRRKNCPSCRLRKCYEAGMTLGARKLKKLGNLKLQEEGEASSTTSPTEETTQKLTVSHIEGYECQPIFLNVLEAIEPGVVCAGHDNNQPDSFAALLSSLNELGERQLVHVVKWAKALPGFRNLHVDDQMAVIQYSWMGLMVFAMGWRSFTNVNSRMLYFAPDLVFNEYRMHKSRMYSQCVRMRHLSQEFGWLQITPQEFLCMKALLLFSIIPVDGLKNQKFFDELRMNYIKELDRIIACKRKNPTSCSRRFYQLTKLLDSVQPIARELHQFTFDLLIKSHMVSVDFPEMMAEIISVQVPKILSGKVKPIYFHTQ

Structures are written as SMILES.

The target in this assay is full-length wtAR (Homo sapiens, UniProt P10275).

With `C[C@](O)(CNC(=O)c1cn[nH]c1)C(=O)Nc1ccc(C#N)c(C(F)(F)F)c1` [Compound 29f, (S)—N-(3-((4-Cyano-3-(trifluoromethyl)phenyl)amino)-2-hydroxy-2-methyl-3-oxopropyl)-1H-pyrazole-4-carboxamide], the “Transactivation IC50” value is given as “agonist”.
